GIV-Gai inh: inhibitors of GIV GBA-motif binding to rat Galpha-i3. actives 0.42% (n = 210,000). Galpha-i3/FITC-GIV peptide fluorescence polarization, 90 min; active compounds read low; scaled: aluminum fluoride 0%, vehicle 100%. AID 1224905. percent of control (FP), % (no concentration beside the values). P08753;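 active means replicate mean at 85% of control or lower, very high polarization wells dropped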;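 further: wells of about 15 µL received 100 nL stock; the first replicate is given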
HCMV UL50-53 inh: cytomegalovirus nuclear egress complex inhibition. HTRF UL50-UL53 interaction, normalized percent inhibition. inhibition, % (test concentration not listed). 190,000 tested, 0.15% active. AID 1918969; in the data active = inhibition above about 27%, passing the limit was not always enough
Starred values were filed as active, the others as inactive; x = not tested or not shown. The list is not random: actives were taken first. Their share in the collection is about 0.46%.

Cc1cccc(NC2=NCC(=O)N2Cc2ccccc2)c1
  GIV-Gai inh = 102.5	HCMV UL50-53 inh = 59.4*
O=C1CN=C(Nc2ccccc2Cl)N1Cc1ccccc1
  GIV-Gai inh = 101.9	HCMV UL50-53 inh = 15.1
C=CCCCCCCCCC(=O)[O-].C=CCCCCCCCCC(=O)[O-].[Zn+2]
  GIV-Gai inh = x	HCMV UL50-53 inh = -9.1
COc1ccc(CNC(=O)c2cc(-c3ccc(Br)s3)nc3ccccc23)cc1
  GIV-Gai inh = 107.3	HCMV UL50-53 inh = -22.1
CN1CCCc2cc(/C=C3\CC/C(=C/c4ccc5c(c4)N(C)CCC5)C3=O)ccc21
  GIV-Gai inh = -74.8*	HCMV UL50-53 inh = x
CN1CCCc2cc(/C=C3\CCC(C4CCCC4)C3=O)ccc21 (stereo not given)
  GIV-Gai inh = 157.1	HCMV UL50-53 inh = x
Cc1nc(C(=O)NC2(O)C(=O)c3ccccc3C2=O)cs1
  GIV-Gai inh = 94.9	HCMV UL50-53 inh = 59.9*
CSc1ncccc1C(=O)NC1(O)C(=O)c2ccccc2C1=O
  GIV-Gai inh = 93.1	HCMV UL50-53 inh = 56.1*
CSc1ncccc1C(=O)Nc1ccccc1C
  GIV-Gai inh = 103.9	HCMV UL50-53 inh = x
O=C(NC1(O)C(=O)c2ccccc2C1=O)c1cnn(-c2ccccc2)c1C(F)(F)F
  GIV-Gai inh = 87.4	HCMV UL50-53 inh = 49.4
Cn1cc2nc(SCC(=O)Nc3cc(F)ccc3F)n(C3CCCC3)c(=O)c2n1
  GIV-Gai inh = 103.1	HCMV UL50-53 inh = 2.5
Cc1ccc(OC(C)C(=O)O)cc1 (stereo not given)
  GIV-Gai inh = x	HCMV UL50-53 inh = -17.7
O=C(CSCc1ccccc1)Nc1nnc(SCc2ccccc2)s1
  GIV-Gai inh = x	HCMV UL50-53 inh = -17.6
CCOC(=O)C1CCCN(C(=O)Cn2c(=O)c3ccccc3n3c(=S)sc(-c4cccc(F)c4)c23)C1 (stereo not given)
  GIV-Gai inh = 77.0*	HCMV UL50-53 inh = -36.4
CCOC(=O)C1CCCN(C(=O)Cn2c(=O)c3ccccc3n3c(=S)sc(-c4ccc(Cl)cc4)c23)C1 (stereo not given)
  GIV-Gai inh = 134.9	HCMV UL50-53 inh = 12.1
CC1CN(C(C(=O)c2c[nH]c3ccccc23)c2ccccc2)CC(C)O1 (stereo not given)
  GIV-Gai inh = x	HCMV UL50-53 inh = -6.0
CCOC(=O)c1ccc(-c2ccc(/C=C3\Sc4ccccc4C3=O)o2)cc1
  GIV-Gai inh = 115.7	HCMV UL50-53 inh = -18.4
O=C(O)c1ccc(-c2ccc(/C=C3\Sc4ccccc4C3=O)o2)cc1
  GIV-Gai inh = -10.5*	HCMV UL50-53 inh = x
O=C(O)c1cccc(-c2ccc(/C=C3\Sc4ccccc4C3=O)o2)c1
  GIV-Gai inh = -72.6*	HCMV UL50-53 inh = -86.1
COC(=O)c1cccc(-c2ccc(/C=C3\Sc4ccccc4C3=O)o2)c1
  GIV-Gai inh = 162.6	HCMV UL50-53 inh = 5.1
COc1ccccc1C(=O)On1c(C)nc2ccccc2c1=O
  GIV-Gai inh = 97.9	HCMV UL50-53 inh = 31.0*
COc1cc(OC)cc(-c2nc3ccccc3c(=O)n2OC(=O)c2cc(Cl)ccc2OC)c1
  GIV-Gai inh = 103.0	HCMV UL50-53 inh = 11.4
Cc1cc(NC(=O)/C(=C/c2cccs2)c2ccsc2)no1
  GIV-Gai inh = 103.0	HCMV UL50-53 inh = -57.5
O=c1[nH]nc(SCc2ccccc2)c(=O)[nH]1
  GIV-Gai inh = 98.6	HCMV UL50-53 inh = -21.1
O=c1[nH]nc(SCc2cccc3ccccc23)c(=O)[nH]1
  GIV-Gai inh = 84.9*	HCMV UL50-53 inh = -0.6

O=C(Nc1ccc(Br)cc1)c1ccc(-c2cc(N3CCCC3)ncn2)cc1
  GIV-Gai inh = 100.9	HCMV UL50-53 inh = x
O=C(Nc1ccc2snnc2c1)NC1CC1
  GIV-Gai inh = 104.5	HCMV UL50-53 inh = 47.7*
CNC(=O)Nc1ccc2snnc2c1
  GIV-Gai inh = 101.7	HCMV UL50-53 inh = x
Cc1ccc(C2c3c(oc4ccccc4c3=O)C(=O)N2c2ccc(C)cn2)cc1 (stereo not given)
  GIV-Gai inh = 104.5	HCMV UL50-53 inh = -13.6
N#CCc1c(C#N)c(N)nc(Nc2ccccc2)c1C#N
  GIV-Gai inh = x	HCMV UL50-53 inh = 72.0*
CSc1nc(-c2ccccc2)nc(Nc2ccccc2)c1C#N
  GIV-Gai inh = 102.5	HCMV UL50-53 inh = -14.8
O=C1/C(=C/c2ccccc2)Nc2ccccc21
  GIV-Gai inh = -102.2*	HCMV UL50-53 inh = -72.5
O=C1Nc2ccccc2/C1=C/c1ccccc1
  GIV-Gai inh = 109.2	HCMV UL50-53 inh = x
COc1ccc(-c2noc(C)n2)cc1
  GIV-Gai inh = 106.3	HCMV UL50-53 inh = 13.3
CCCCSCCCNC(=O)C1CCN(Cc2nc(-c3cccc(Br)c3)oc2C)CC1
  GIV-Gai inh = 103.7	HCMV UL50-53 inh = -4.3
CCOC(=O)C1=C(O)/C(=C/c2ccc(O)cc2)SC1=Nc1ccc([N+](=O)[O-])cc1
  GIV-Gai inh = 104.0	HCMV UL50-53 inh = x
CN(C)/C=C1\SC(=S)N(c2ccc(Br)cc2)C1=O
  GIV-Gai inh = -65.5*	HCMV UL50-53 inh = -104.3
Cc1c(N2C(=O)/C(=C/c3ccc(Br)cc3)SC2=S)c(=O)n(-c2ccccc2)n1C
  GIV-Gai inh = 103.7	HCMV UL50-53 inh = x
NNc1ccccc1C(F)(F)F
  GIV-Gai inh = x	HCMV UL50-53 inh = -13.7
CC1CCN(CC(C)OC(=O)c2cccs2)CC1 (stereo not given)
  GIV-Gai inh = 96.8	HCMV UL50-53 inh = -12.3
CN1CCc2c(sc(NC(=O)c3nc4ccccc4s3)c2-c2nc3ccccc3s2)C1
  GIV-Gai inh = 95.5	HCMV UL50-53 inh = x
CCN1CCc2c(sc(NC(=O)c3ccc(Cl)cc3)c2-c2nc3ccccc3s2)C1
  GIV-Gai inh = -3.2*	HCMV UL50-53 inh = x
CC(C)N1CCc2c(sc(NC(=O)C(C)(C)C)c2-c2nc3ccccc3s2)C1
  GIV-Gai inh = -26.3*	HCMV UL50-53 inh = x
COC(=O)c1ccc(C(=O)Nc2sc3c(c2-c2nc4ccccc4s2)CCN(C(C)C)C3)cc1
  GIV-Gai inh = 262.4	HCMV UL50-53 inh = x
CCN1CCc2c(sc(NC(=O)CSc3ccccc3)c2-c2nc3ccccc3s2)C1
  GIV-Gai inh = 169.4	HCMV UL50-53 inh = x
CC(=O)N1CCc2c(sc(NC(=O)C(C)C)c2-c2nc3ccccc3s2)C1
  GIV-Gai inh = x	HCMV UL50-53 inh = -17.0
CC(=O)Nc1sc2c(c1-c1nc3ccccc3s1)CCN(C(C)C)C2
  GIV-Gai inh = -3.2*	HCMV UL50-53 inh = x
COc1ccc(C(=O)Nc2sc3c(c2-c2nc4ccccc4s2)CCN(C(C)C)C3)cc1OC
  GIV-Gai inh = -3.2*	HCMV UL50-53 inh = x
COc1ccccc1-c1cc2n(C)c(C)c(CCC(=O)N3CCN(C)CC3)c(=O)n2n1
  GIV-Gai inh = 107.3	HCMV UL50-53 inh = x
NC(=O)CSc1nc2ccc(NC(=O)COc3ccccc3Cl)cc2s1
  GIV-Gai inh = 98.1	HCMV UL50-53 inh = -24.3
Cc1ccccc1CN(C)CC(=O)NC(=O)NC1CCCCC1
  GIV-Gai inh = x	HCMV UL50-53 inh = -10.8

Four compounds out of the list, sorted by length of the SMILES, largest number first:
CC(C)N1CCc2c(sc(NC(=O)C(C)(C)C)c2-c2nc3ccccc3s2)C1
  GIV-Gai inh = -26.3*	HCMV UL50-53 inh = x
CCN1CCc2c(sc(NC(=O)CSc3ccccc3)c2-c2nc3ccccc3s2)C1
  GIV-Gai inh = 169.4	HCMV UL50-53 inh = x
Cc1nc(C(=O)NC2(O)C(=O)c3ccccc3C2=O)cs1
  GIV-Gai inh = 94.9	HCMV UL50-53 inh = 59.9*
CSc1ncccc1C(=O)Nc1ccccc1C
  GIV-Gai inh = 103.9	HCMV UL50-53 inh = x

Assay outcomes from PubChem BioAssay.
